Test results from patent US4959393A, “Skin depigmental agent” (priority 1988, dated 1990).

Test: in vivo
Conditions: mouse
Procedure: Resorcinol derivatives or hydroquinone for comparison was dissolved in a physiological saline solution, which was subjected to peroral (p.o.), intraperitoneal (i.p.) and subcutaneous (s.c.) dosages against a group of ten ddy male mice. The life or death of the mice before 24 hours was observed. The value of LD50 was calculated according to the Litchfield-Wilcoxom method using the above results.

SMILES: Oc1ccc(O)cc1 [hydroquinone, reference compound]
- LD50 at 24 h (ip): 144 mg/kg
- LD50 at 24 h (po): 489 mg/kg
- LD50 at 24 h (sc): 339 mg/kg
